{"sequences": {"note": "By UniProt entry, the sequences of proteins in these tests, tags left out. Where a name states a change or a piece, a line headed by the entry shows the natural chain unless it says otherwise.", "UniProt O75469": "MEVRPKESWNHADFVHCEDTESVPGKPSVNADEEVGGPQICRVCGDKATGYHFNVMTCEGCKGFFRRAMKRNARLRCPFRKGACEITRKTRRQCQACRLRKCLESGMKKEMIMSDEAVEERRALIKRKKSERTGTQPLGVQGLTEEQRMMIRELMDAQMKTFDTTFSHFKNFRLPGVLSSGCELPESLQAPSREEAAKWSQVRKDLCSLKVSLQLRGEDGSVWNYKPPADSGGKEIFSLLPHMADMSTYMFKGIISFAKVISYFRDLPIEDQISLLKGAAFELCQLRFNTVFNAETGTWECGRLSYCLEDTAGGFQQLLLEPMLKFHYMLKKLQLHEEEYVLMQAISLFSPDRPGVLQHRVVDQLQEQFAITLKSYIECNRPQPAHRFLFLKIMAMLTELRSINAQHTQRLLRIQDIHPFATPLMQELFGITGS"}, "source": "PubChem BioAssay (Tox21)", "note": "Several values for one entry are separate records, joined by “and”; a condition that tells them apart may be missing. Equal values may be shown once. Most of the hits are listed elsewhere, so they are rarer here than in the full data. Inconclusive results are not listed. More than one record can exist for a structure, and the calls need not agree. Activity calls are given as the source filed them. Calls come from the whole dose curve; as a rule, active = well fitted activation curve with a large enough effect in the repeat runs; inconclusive = weak or mixed curves; inactive = no such curve, though single readings can be large or run the other way.", "data": [{"molecular_target": "Nuclear receptor subfamily 1 group I member 2 (Homo sapiens) (UniProt O75469)", "assay": "Human pregnane X receptor (PXR) small molecule agonists, qHTS assay (AID 1346982); note: nearly all actives have a fitted effect of over 35% in size; note: potency is the fitted concentration of half-maximal effect; for activation: % is set by controls: 0 for no effect and ±100 for the full control effect", "settings": "PXR-Luc HepG2, CYP3A4 luciferase reporter, 24 h; activation: at the top concentration", "outline": "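After plating in 5% charcoal-stripped FBS and a 5 hr rest, PXR-Luc HepG2 cells received compounds in DMSO. Following 24 hr at 37 C, ONE-Glo was added and light output read.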", "values": [{"molecule": "CC(C)NCC(O)c1ccc(O)c(O)c1", "note": "(stereo not given)", "Potency": "inactive"}, {"molecule": "C[N+](C)(C)CCCCCC[N+](C)(C)C", "Potency": "inactive"}, {"molecule": "COc1ccc(C2CNC(=O)C2)cc1OC1CCCC1", "note": "(stereo not given)", "activation": "inactive: 18.3%"}, {"molecule": "CC(=O)OCC(=O)[C@@]1(OC(C)=O)[C@@H](C)C[C@H]2[C@@H]3C[C@H](F)C4=CC(=O)C=C[C@]4(C)[C@@]3(F)[C@@H](O)C[C@@]21C", "activation": "inactive: 24.9%"}, {"molecule": "Cc1cc(NC(=O)C2=C(O)c3ccccc3S(=O)(=O)N2C)no1", "activation": "inactive: -3.44%"}, {"molecule": "Oc1cccc2ccccc12", "Potency": "active: 54.5 µM"}, {"molecule": "Oc1c(Cl)cc(Cl)c(Cl)c1Cc1c(O)c(Cl)cc(Cl)c1Cl", "Potency": "active: 8.61 µM and active: 8.63 µM"}, {"molecule": "CCN1CCCC1CNC(=O)c1cc(S(N)(=O)=O)ccc1OC", "note": "(stereo not given)", "activation": "inactive: -3.44% [at 92.4 µM]"}, {"molecule": "O=c1n(CCCN2CCN(c3cccc(Cl)c3)CC2)nc2ccccn12", "Potency": "active: 19.3 µM and active: 11.9 µM"}, {"molecule": "O=c1c(O)c(-c2ccc(O)cc2)oc2cc(O)cc(O)c12", "Potency": "active: 60.9 µM and active: 41.3 µM"}, {"molecule": "CC(C)(C)NCC(O)COc1cccc2c1CCC(=O)N2", "note": "(stereo not given)", "activation": "inactive: -2.29%"}, {"molecule": "O=CO", "activation": "inactive: 3.04% [at 8.39 µM]"}, {"molecule": "CCCN1CCCC[C@H]1C(=O)Nc1c(C)cccc1C", "activation": "inactive: 3.78%"}, {"molecule": "Cc1ccccc1OCC(O)CO", "note": "(stereo not given)", "activation": "inactive: -4.58%"}, {"molecule": "O=c1[nH]c(=O)n([C@H]2C[C@H](O)[C@@H](CO)O2)cc1I", "activation": "inactive: -3.17%"}, {"molecule": "COc1cc(Nc2c(C#N)cnc3cc(OCCCN4CCN(C)CC4)c(OC)cc23)c(Cl)cc1Cl", "activation": "inactive: -44.1%"}, {"molecule": "Cc1ccc(O)c([C@H](CCN(C(C)C)C(C)C)c2ccccc2)c1", "Potency": "active: 3.35 µM"}, {"molecule": "O=C(O)c1cccnc1", "Potency": "inactive"}, {"molecule": "O=c1oc(=O)c2cc3c(=O)oc(=O)c3cc12", "Potency": "inactive"}, {"molecule": "Oc1ccc2ccccc2c1", "Potency": "active: 62.6 µM and active: 34.4 µM"}, {"molecule": "C[N+](C)(C)CC(O)CC(=O)[O-]", "note": "(stereo not given)", "activation": "inactive: -3.06%"}, {"molecule": "CC(C(=O)O)c1ccc2c(c1)Cc1cccnc1O2", "note": "(stereo not given)", "activation": "inactive: 15.6%"}, {"molecule": "Cc1cc(N)c2cc(NC(=O)Nc3ccc4nc(C)cc(N)c4c3)ccc2n1", "activation": "inactive: -9.37%"}, {"molecule": "CC1(C)NC(=O)N(c2ccc([N+](=O)[O-])c(C(F)(F)F)c2)C1=O", "Potency": "active: 27.3 µM and inactive"}, {"molecule": "CCN1CCC[C@H]1CNC(=O)c1cc(S(N)(=O)=O)ccc1OC", "activation": "inactive: -7.49%"}, {"molecule": "CC(C)(C)c1ccc(C(=O)O)cc1", "activation": "inactive: 8.07% [at 92.4 µM]"}, {"molecule": "Clc1cccc(Cl)c1NC1=NCCN1", "activation": "inactive: -8.36%"}, {"molecule": "CC[N+](CC)(CC(=O)Nc1c(C)cccc1C)Cc1ccccc1", "Potency": "inactive"}, {"molecule": "O=NO", "Potency": "inactive"}, {"molecule": "CN(C)CCOc1ccc(/C(=C(/CCCl)c2ccccc2)c2ccccc2)cc1", "Potency": "active: 7.21 µM"}, {"molecule": "CCCc1nn(C)c2c(=O)[nH]c(-c3cc(S(=O)(=O)N4CCN(C)CC4)ccc3OCC)nc12", "Potency": "active: 11.9 µM"}, {"molecule": "CC[N+](C)(C)c1cccc(O)c1", "activation": "inactive: -1.8%"}, {"molecule": "COc1cc(NS(=O)(=O)c2ccc(N)cc2)ncn1", "activation": "inactive: -6.09%"}, {"molecule": "O=C(O)c1cccc([N+](=O)[O-])c1", "Potency": "inactive"}, {"molecule": "CCCCNC(=O)NS(=O)(=O)c1ccc(C)cc1", "Potency": "inactive"}]}]}
